Here are results for one compound from patent US11124550B2, “Proteinaceous molecules and methods of use” (priority 2015, dated 2021).

By UniProt entry, the sequences of proteins in these tests, tags left out.
UniProt Q9NY46, whole entry: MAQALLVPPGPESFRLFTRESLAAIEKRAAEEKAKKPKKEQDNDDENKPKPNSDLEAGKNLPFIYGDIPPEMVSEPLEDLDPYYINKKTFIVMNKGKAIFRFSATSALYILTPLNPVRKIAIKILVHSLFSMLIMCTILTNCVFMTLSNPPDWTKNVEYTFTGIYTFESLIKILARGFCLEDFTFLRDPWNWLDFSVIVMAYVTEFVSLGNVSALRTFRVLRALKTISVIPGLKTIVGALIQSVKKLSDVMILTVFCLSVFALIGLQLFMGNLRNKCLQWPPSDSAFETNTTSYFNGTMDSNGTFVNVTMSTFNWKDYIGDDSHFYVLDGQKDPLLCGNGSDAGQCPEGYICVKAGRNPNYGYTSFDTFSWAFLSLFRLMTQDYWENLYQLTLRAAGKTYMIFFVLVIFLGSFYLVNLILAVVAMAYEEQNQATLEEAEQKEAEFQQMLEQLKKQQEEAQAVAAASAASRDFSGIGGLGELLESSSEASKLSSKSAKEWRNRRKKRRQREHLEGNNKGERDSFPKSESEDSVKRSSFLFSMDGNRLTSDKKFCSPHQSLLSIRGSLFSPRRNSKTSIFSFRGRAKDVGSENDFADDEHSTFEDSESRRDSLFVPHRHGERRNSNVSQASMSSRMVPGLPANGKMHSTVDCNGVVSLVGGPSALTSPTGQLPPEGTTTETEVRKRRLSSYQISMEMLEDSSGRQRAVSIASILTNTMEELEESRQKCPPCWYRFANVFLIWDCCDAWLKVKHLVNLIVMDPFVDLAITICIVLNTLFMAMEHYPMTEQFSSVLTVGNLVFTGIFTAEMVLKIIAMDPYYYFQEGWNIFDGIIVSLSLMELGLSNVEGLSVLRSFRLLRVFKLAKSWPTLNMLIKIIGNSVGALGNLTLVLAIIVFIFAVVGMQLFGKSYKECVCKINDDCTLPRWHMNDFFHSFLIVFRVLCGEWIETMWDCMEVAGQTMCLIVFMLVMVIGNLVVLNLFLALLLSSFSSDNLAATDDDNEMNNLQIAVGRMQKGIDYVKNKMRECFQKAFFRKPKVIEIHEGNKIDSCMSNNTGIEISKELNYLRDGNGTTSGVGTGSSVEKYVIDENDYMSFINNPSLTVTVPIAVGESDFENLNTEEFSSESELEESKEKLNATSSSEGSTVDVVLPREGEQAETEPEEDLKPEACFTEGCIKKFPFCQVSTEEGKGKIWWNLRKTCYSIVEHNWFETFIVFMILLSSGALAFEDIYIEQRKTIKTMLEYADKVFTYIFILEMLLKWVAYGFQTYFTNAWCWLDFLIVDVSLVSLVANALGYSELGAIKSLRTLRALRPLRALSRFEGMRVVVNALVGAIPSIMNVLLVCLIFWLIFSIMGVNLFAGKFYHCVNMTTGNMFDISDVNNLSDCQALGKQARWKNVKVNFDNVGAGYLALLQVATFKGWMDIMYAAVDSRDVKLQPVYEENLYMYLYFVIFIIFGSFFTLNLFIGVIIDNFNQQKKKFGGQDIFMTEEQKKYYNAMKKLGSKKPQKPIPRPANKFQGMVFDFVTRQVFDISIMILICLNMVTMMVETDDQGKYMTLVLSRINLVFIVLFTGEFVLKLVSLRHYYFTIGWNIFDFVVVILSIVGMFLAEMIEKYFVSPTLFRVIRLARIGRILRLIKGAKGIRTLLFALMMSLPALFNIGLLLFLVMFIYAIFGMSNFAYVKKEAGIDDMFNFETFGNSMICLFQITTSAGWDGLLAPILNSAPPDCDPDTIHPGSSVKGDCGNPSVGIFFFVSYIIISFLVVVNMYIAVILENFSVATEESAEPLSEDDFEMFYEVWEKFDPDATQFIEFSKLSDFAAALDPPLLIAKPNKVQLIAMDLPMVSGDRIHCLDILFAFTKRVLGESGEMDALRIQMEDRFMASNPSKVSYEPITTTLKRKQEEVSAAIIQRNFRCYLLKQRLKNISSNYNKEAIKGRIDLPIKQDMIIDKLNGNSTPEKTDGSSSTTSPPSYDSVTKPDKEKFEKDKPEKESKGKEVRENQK

For this assay, the target named is T1, hNav1.3 (Homo sapiens, UniProt Q9NY46).
T1 construct: expressed in transfected cells; host or cells: HEK293T
The assay can be described thus: Automated planar whole-cell patch clamp (Patchliner), hSCN3A HEK293T cells. Type of assay: cell-based. The text has this:
To characterize the functional activity of Hm1a and Hm1b, HEK293T cells stably transfected with either hSCN1A, hSCN2A, hSCN3A, hSCN5A, hSCN9A or hSCN10A as well as CHO cells stably transfected with hSCN4A or hSCN8A were used for whole-cell patch-clamp analysis with a high throughput automated planar patch-clamp technology.
HEK293T cells stably transfected with either hSCN1A, hSCN2A, hSCN3A, hSCN5A, hSCN9A or hSCN10A were maintained in Dulbecco's Modified Eagle's Medium Nutrient Mixture F-12 (Invitrogen, Carlsbad, Calif., USA) supplemented with 10% (v/v) foetal bovine serum (FBS) (Invitrogen), 0.9% Penicillin/Streptomycin (P/S) solution and 100 μg/mL hygromycin or 100 μg/mL neomycin. CHO cells stably transfected with hSCN4A or hSCN8A were maintained in Ham's F12 Nutrient Mixture (Invitrogen, Carlsbad, Calif., USA) supplemented with 10% (v/v) FBS, 0.9% P/S solution and 100 μg/mL hygromycin. All cells were grown in T75 flasks (BD Biosciences, San Jose, Calif., USA) to ˜70% confluency.
Patch-clamp recordings were conducted in the whole-cell configuration using a Patchliner® (Nanion Technologies, Munich, Germany). […]

Take `CC(C)C[C@@H]1NC(=O)[C@H](Cc2ccc(O)cc2)NC(=O)[C@H](CCCNC(=N)N)NC(=O)[C@@H](NC(=O)[C@@H](N)CCC(=O)O)CSSC[C@@H]2NC(=O)[C@@H]3CSSC[C@@H](C(=O)N[C@@H](C)C(=O)N[C@@H](Cc4c[nH]c5ccccc45)C(=O)N[C@@H](CC(=O)O)C(=O)NCC(=O)N[C@H](C(=O)N[C@@H](Cc4ccccc4)C(=O)N[C@@H](CO)C(=O)O)[C@@H](C)O)NC(=O)[C@H](Cc4ccc(O)cc4)NC(=O)[C@H](CCCCN)NC(=O)[C@H](Cc4c[nH]c5ccccc45)NC(=O)[C@H](CC(=O)O)NC(=O)[C@H](CO)NC(=O)[C@H](CCCNC(=N)N)NC(=O)[C@H](CSSC[C@H](NC(=O)CNC(=O)CNC(=O)[C@H](Cc4ccccc4)NC1=O)C(=O)N[C@@H](CO)C(=O)N[C@@H](CO)C(=O)N[C@@H]([C@@H](C)O)C(=O)N[C@@H](CO)C(=O)N[C@@H](CC(=O)O)C(=O)N3)NC(=O)[C@H](CO)NC(=O)[C@H](CC(C)C)NC(=O)[C@H](Cc1c[nH]cn1)NC(=O)[C@H](CCCCN)NC2=O` [Hm1a]: the hNav1.3 sustained current entry was “does not result in a sustained current”. Also, the “rate of inactivation of hNav1.3” value (to a lesser extent than hNav1.1, 1, 5 or 50 nM) was “slows the rate of inactivation”.
